In this experiment the target is Cannabinoid receptor 1 (Homo sapiens, UniProt P21554). Description: Antagonist activity at human CB1 receptor stably expressed in RD-HGA16 cells assessed as inhibition of CP55,940-induced calcium mobilization after 15 mins by FLIPR assay. The format is functional, cell-based.

By UniProt entry, the sequences of proteins in these tests, tags left out.
UniProt P21554, whole entry: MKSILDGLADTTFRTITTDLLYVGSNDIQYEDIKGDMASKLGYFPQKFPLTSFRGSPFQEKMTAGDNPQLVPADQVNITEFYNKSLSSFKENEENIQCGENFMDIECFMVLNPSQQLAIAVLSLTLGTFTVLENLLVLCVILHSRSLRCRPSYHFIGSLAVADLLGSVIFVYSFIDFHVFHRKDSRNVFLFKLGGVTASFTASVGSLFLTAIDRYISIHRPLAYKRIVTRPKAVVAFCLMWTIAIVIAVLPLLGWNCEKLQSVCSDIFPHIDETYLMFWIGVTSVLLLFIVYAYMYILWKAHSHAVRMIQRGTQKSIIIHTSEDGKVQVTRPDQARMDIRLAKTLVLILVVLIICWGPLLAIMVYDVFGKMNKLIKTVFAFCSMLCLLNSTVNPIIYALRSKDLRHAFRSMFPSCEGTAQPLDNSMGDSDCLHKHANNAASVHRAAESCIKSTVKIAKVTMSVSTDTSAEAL

The results in this text go back to ChEMBL document CHEMBL3351332, “Diarylureas as allosteric modulators of the cannabinoid CB1 receptor: structure-activity relationship studies on 1-(4-chlorophenyl)-3-{3-[6-(pyrrolidin-1-yl)pyridin-2-yl]phenyl}urea (PSNCBAM-1)” (J Med Chem, 2014).

For the molecule `O=C(Nc1ccc(Cl)cc1)Nc1cccc(-c2cccc(N3CCCC3)n2)c1`, the IC50 was found to be 32.5 nM.
